Test results from PubChem BioAssay AID1259398 (Fisher Drug Discovery Resource Center, 2018).
The entries are a selection whose mix differs from that of the whole data set. Some tests of the compounds listed are not included; inactive here does not mean inactive elsewhere. Active and inactive are the calls of the source. Cut-off read from the data, not from the text of the source: active = inhibition above about 40%; inactive = the rest.

The chains behind the UniProt entries cited, without tags or fusion partners.
UniProt Q8N884, whole entry: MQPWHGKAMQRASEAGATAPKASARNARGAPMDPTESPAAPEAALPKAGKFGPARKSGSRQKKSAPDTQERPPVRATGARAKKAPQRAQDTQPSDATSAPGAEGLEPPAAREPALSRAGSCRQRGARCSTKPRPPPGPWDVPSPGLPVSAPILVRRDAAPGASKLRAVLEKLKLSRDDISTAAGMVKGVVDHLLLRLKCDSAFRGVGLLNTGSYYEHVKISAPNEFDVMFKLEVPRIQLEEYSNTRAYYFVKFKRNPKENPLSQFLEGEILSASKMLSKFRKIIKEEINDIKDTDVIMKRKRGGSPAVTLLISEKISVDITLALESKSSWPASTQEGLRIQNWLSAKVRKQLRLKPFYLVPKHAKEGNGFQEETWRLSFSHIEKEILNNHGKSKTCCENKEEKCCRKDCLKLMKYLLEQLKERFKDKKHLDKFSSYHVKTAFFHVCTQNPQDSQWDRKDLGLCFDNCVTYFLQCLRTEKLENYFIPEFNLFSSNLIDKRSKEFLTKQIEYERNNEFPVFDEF

The compounds below were run against Cyclic GMP-AMP synthase (Homo sapiens) (UniProt Q8N884) (assay: Biochemical Kinase-Glo luminescence primary assay, human cyclic GMP-AMP synthase inhibition (AID 1259398;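 note: 0% = vehicle reaction and 100% = reaction without DNA for no activity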)). Conditions: recombinant h-cGAS, ATP depletion, at 12.5 µM, active compounds read high.

SMILES | inhibition
CN(C)C1(CNC(=O)c2cc(Br)c(Br)s2)CCCCC1 | inactive: -3.43%
N#CC(C#N)=Cc1ccc(Br)cc1 | inactive: -6.33%
